In the supplement of paper PMC11403291:
± gives the standard deviation of the averaged measurements.

The chains behind the UniProt entries cited, without tags or fusion partners. Where a name states a change or a piece, a line headed by the entry shows the natural chain unless it says otherwise.
UniProt P05771, whole entry, looked up: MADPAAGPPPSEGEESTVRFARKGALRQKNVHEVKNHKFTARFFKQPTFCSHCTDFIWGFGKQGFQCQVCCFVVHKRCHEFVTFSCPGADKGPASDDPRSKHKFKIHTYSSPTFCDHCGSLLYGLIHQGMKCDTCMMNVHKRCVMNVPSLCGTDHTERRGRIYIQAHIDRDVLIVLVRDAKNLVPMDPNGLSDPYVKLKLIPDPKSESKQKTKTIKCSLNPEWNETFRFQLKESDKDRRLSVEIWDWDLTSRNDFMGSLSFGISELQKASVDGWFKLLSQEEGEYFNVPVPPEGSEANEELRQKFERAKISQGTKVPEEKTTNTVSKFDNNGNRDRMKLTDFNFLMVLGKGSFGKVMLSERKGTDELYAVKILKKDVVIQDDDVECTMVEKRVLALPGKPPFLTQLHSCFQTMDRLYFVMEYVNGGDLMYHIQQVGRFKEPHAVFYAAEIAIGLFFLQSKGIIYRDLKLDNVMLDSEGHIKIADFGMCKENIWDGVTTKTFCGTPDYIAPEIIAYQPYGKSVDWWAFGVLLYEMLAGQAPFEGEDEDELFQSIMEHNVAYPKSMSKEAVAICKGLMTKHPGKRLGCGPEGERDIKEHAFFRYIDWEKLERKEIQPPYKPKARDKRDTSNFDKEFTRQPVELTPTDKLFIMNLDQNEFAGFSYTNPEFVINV
UniProt Q2M2I8: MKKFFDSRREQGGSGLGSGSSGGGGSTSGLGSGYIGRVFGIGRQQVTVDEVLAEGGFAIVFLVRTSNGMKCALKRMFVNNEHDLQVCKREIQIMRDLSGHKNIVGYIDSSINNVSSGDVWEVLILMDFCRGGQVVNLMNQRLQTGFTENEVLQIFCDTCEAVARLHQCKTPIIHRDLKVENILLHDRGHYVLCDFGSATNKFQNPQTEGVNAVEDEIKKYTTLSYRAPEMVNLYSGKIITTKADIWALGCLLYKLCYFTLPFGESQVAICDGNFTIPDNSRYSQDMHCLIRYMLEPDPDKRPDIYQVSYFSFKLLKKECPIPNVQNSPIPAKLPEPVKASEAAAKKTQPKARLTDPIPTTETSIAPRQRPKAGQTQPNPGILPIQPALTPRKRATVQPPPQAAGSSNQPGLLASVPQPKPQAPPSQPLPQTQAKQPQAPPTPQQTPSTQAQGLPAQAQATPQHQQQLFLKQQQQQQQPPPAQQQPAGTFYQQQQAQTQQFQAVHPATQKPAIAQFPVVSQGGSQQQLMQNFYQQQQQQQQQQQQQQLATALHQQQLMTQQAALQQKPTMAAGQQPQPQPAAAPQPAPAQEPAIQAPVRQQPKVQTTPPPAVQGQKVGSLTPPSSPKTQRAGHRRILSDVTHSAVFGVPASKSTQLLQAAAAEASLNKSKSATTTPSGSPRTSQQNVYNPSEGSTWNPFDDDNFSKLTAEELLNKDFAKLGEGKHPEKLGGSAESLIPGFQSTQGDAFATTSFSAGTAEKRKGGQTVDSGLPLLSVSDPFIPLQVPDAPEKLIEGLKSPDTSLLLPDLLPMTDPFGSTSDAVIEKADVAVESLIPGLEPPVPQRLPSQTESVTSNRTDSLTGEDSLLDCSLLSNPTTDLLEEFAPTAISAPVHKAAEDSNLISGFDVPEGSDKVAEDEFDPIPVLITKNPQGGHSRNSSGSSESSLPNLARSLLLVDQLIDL
UniProt O75116: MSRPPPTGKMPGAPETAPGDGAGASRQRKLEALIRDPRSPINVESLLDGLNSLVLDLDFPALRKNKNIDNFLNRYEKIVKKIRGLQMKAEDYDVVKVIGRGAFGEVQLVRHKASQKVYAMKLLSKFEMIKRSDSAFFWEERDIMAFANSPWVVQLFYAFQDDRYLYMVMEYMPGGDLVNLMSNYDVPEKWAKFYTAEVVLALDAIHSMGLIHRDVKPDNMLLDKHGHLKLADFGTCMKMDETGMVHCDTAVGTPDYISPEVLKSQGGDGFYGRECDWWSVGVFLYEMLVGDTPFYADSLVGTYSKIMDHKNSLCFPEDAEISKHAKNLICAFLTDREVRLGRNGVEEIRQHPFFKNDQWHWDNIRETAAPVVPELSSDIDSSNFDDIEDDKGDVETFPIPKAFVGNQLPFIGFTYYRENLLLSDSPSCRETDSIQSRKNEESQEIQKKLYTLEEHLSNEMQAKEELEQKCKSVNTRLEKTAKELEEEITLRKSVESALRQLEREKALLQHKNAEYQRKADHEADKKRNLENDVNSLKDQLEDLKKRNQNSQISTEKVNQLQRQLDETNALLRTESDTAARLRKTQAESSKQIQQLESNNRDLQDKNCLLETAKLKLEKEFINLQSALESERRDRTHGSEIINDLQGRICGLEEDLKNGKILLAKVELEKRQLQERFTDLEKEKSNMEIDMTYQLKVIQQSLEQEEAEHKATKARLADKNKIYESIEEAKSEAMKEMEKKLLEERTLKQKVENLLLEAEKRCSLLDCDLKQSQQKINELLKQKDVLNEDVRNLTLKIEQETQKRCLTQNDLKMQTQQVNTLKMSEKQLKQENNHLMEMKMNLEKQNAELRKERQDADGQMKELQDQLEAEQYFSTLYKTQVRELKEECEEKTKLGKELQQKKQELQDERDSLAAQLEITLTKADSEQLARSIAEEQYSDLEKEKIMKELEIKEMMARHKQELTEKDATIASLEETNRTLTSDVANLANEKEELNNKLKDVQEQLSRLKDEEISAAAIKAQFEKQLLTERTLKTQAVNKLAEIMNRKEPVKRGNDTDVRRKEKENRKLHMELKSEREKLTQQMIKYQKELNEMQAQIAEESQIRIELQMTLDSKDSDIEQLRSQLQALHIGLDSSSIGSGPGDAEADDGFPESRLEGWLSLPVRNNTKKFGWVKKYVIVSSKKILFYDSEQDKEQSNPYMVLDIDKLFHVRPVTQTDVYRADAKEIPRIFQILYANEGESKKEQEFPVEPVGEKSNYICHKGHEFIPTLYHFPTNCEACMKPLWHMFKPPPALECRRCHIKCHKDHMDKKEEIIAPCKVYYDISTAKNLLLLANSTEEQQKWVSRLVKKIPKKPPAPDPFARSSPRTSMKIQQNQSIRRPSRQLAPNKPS
UniProt Q13131: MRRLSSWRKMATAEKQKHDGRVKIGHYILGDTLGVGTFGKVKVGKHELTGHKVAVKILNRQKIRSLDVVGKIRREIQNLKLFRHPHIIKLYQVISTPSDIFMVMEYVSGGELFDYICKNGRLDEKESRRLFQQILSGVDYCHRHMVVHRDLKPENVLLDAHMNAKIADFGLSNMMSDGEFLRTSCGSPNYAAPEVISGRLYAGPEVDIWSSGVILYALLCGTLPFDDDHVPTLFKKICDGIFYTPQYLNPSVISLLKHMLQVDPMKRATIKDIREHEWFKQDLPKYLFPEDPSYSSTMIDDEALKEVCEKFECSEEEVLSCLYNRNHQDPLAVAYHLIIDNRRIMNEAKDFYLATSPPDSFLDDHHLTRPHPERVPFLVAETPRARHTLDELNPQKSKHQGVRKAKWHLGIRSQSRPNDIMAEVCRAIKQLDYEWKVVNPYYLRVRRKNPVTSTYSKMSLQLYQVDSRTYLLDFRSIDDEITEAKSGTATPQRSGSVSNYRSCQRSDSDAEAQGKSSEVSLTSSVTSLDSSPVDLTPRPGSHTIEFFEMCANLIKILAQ
UniProt P07948: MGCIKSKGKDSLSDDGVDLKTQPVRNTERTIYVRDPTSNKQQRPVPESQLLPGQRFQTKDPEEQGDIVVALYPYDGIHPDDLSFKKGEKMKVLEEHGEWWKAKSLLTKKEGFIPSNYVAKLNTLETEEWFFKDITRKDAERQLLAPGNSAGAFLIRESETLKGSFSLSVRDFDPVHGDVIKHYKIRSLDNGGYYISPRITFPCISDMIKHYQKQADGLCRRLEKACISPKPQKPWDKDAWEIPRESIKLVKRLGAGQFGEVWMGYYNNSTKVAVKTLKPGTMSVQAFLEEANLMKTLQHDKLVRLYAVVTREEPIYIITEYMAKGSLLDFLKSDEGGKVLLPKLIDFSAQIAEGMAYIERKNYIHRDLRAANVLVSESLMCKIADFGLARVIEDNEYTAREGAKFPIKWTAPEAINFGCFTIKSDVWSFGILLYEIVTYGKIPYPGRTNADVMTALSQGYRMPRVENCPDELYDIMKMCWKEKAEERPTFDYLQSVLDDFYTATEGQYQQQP
UniProt P37173, whole entry: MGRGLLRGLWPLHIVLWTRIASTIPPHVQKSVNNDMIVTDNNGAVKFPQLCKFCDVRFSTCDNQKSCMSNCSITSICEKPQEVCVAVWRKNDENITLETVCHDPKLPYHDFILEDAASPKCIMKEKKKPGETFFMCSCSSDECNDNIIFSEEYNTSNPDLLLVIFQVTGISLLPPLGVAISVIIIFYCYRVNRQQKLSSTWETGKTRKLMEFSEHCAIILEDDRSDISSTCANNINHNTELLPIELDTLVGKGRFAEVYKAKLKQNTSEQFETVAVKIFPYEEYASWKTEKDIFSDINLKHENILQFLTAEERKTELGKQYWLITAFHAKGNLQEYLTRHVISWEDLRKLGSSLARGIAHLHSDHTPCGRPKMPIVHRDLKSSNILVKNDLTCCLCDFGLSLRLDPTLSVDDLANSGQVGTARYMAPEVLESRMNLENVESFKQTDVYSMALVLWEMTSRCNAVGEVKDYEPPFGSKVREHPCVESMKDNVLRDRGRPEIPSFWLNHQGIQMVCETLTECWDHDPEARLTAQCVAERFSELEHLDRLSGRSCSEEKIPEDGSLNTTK

Legend:
Assay in all cases: apparent dissociation constant pKd app (kinobead competition) (-log10(M)); higher = stronger binding
PDPK1 = target: T1, PDPK1 (UniProt O15530)
T1 sequence (whole entry): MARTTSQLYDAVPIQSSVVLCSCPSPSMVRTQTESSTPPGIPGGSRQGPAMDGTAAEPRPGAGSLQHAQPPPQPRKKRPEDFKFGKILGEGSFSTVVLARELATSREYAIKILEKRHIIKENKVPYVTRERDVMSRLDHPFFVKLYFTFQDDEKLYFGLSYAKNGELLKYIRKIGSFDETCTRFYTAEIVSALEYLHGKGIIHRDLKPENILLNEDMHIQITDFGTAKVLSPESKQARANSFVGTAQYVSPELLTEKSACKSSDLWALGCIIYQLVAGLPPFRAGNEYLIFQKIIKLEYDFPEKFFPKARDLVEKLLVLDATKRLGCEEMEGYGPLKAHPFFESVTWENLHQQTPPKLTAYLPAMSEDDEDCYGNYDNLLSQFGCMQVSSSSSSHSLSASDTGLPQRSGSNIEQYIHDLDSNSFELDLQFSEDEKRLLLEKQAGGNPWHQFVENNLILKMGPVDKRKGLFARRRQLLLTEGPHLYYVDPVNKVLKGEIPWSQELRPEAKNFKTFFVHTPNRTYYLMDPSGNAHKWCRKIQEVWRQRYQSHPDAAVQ

ADCK1 = target: T2, ADCK1 (UniProt Q86TW2)
T2 sequence (whole entry): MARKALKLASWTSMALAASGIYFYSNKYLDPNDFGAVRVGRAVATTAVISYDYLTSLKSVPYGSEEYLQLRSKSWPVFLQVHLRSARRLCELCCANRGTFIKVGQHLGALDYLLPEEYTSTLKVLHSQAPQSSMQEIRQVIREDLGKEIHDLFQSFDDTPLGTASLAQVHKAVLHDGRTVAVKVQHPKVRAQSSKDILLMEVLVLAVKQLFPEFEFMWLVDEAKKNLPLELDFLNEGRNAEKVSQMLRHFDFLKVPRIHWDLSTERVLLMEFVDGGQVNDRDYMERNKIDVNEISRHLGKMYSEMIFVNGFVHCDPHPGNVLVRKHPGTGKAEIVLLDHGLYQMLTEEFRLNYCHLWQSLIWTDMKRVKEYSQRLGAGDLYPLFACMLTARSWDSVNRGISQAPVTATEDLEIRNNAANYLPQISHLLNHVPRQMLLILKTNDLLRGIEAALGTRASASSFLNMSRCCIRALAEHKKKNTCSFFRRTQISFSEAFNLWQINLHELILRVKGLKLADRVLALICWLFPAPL

PRKCB = PRKCB (UniProt P05771)
LOC100128443 = target: LOC100128443
AAK1 = AAK1 (UniProt Q2M2I8)
ROCK2 = ROCK2 (UniProt O75116)
PRKAA1 = PRKAA1 (UniProt Q13131)
LYN = LYN (UniProt P07948)
MARK4 = target: T3, MARK4 (UniProt Q96L34)
T3 sequence (whole entry): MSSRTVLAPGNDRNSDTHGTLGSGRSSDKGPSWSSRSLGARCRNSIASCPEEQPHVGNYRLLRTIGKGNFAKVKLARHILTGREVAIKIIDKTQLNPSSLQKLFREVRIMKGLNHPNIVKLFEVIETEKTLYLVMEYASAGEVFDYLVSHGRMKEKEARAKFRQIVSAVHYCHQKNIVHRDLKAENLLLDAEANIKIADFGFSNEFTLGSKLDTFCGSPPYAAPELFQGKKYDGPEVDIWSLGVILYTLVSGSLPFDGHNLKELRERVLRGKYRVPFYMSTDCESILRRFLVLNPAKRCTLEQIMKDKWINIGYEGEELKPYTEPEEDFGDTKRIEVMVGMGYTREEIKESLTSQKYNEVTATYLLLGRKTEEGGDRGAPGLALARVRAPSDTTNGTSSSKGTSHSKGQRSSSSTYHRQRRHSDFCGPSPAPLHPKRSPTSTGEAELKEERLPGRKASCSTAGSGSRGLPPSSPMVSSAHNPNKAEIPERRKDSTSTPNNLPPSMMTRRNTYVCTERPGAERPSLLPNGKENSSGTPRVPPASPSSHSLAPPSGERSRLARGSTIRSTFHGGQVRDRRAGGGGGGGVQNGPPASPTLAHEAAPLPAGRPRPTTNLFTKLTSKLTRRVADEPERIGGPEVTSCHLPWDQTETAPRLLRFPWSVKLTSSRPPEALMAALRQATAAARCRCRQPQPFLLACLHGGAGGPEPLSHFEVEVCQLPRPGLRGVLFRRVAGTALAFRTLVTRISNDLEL

TGFBR2 = TGFBR2 (UniProt P37173)

Structure (SMILES) | apparent dissociation constant pKd app (-log10) (PDPK1) | apparent dissociation constant pKd app (-log10) (ADCK1) | apparent dissociation constant pKd app (-log10) (PRKCB) | apparent dissociation constant pKd app (-log10) (LOC100128443) | apparent dissociation constant pKd app (-log10) (AAK1) | apparent dissociation constant pKd app (-log10) (ROCK2) | apparent dissociation constant pKd app (-log10) (PRKAA1) | apparent dissociation constant pKd app (-log10) (LYN) | apparent dissociation constant pKd app (-log10) (MARK4) | apparent dissociation constant pKd app (-log10) (TGFBR2)
NC(=O)c1cccc2cn(-c3ccc([C@@H]4CCCNC4)cc3)nc12 [Niraparib] | < 4.5 | 4.75 ± 0.071 | < 4.7 | < 4.6 | < 4.8 | < 4.5 | < 4.8 | < 4.7 | < 4.6 | < 4.8
Cn1ncnc1[C@H]1c2n[nH]c(=O)c3cc(F)cc(c23)N[C@@H]1c1ccc(F)cc1 [Talazoparib] | < 4.5 | < 4.5 | < 4.7 | < 4.6 | < 4.8 | < 4.5 | < 4.8 | < 4.7 | < 4.6 | < 4.8
O=C(c1cc(Cc2n[nH]c(=O)c3ccccc23)ccc1F)N1CCN(C(=O)C2CC2)CC1 [Olaparib] | < 4.5 | < 4.5 | < 4.7 | < 4.6 | < 4.8 | < 4.5 | < 4.8 | < 4.7 | < 4.6 | < 4.8
